# According to patent US9708334B2, “Substituted 2,4,5,6-tetrahydropyrrolo[3,4-c]pyrazole and 4,5,6,7-tetrahydro-2H-pyrazolo[4,3-c]pyridine compounds as GlyT1 inhibitors” (DART NEUROSCIENCE (CAYMAN) LTD., priority 2014, dated 2017):
# pIC50: −log10 of the molar value.
# Target: T1, GlyT1 (Homo sapiens, UniProt P48067)
# T1 construct: expressed in transfected cells
# T1 sequence (P48067 1-706): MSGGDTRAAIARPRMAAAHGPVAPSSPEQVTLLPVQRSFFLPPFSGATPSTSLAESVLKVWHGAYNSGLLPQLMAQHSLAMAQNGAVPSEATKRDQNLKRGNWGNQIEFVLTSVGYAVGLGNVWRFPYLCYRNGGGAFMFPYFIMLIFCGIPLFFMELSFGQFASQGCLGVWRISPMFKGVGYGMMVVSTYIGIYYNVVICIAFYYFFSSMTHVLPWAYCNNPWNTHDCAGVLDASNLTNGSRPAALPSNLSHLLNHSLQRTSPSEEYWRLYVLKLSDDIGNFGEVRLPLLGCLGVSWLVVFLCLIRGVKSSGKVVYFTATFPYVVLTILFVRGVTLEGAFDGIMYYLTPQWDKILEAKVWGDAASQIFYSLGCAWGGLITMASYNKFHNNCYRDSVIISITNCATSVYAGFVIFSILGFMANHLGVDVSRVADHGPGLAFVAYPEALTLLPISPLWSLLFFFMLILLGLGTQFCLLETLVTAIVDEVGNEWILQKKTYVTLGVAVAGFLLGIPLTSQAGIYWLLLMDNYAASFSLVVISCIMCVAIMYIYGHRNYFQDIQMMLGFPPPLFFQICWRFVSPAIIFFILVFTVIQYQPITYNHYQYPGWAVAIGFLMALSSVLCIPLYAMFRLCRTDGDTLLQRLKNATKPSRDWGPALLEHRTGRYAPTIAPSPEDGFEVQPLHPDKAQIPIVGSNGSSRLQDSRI
# Assay: Glycine Transporter 1 (GlyT1) uptake assay, scintillation proximity assay of [14C]-glycine uptake
# Assay type: cell-based
# Description: Glycine Transporter 1 (GlyT1) Uptake Assay
# Plates were then read on a MicroBeta plate counter (Perkin Elmer). Dose-response data for tested compounds were analyzed and curves were fit using a four parameter logistic fit to determine IC50 values. […]
row,SMILES,pIC50
1,"CS(=O)(=O)c1ccc(N2CCC(F)(F)CC2)c(C(=O)N2Cc3cn(-c4cncc(F)c4)nc3C2)c1 [Example 100, 3-{5-[2-(4 4-Difluoropiperidin-1-yl)-5-methanesulfonylbenzoyl]-2H 4H 5H 6H-pyrrolo[3,4-c]pyrazol-2-yl}-5-fluoropyridine]",> 7.00
2,"N#Cc1ccc(-c2cccc(F)c2)c(C(=O)N2Cc3cn(-c4cncc(F)c4)nc3C2)c1 [Example 551, 4-(3-Fluorophenyl)-3-[2-(5-fluoropyridin-3-yl)-2H 4H 5H 6H-pyrrolo[3,4-c]pyrazole-5-carbonyl]benzonitrile]",5.00 to 6.00
3,"CS(=O)(=O)c1ccc(N2CCC(F)(F)CC2)c(C(=O)N2Cc3cn(-c4ccccc4F)nc3C2)c1 [Example 69, 4 4-Difluoro-1-{2-[2-(2-fluorophenyl)-2H 4H 5H 6H-pyrrolo[3,4-c]pyrazole-5-carbonyl]-4-methanesulfonylphenyl}piperidine]",> 7.00
4,"Cc1cc(-n2cc3c(n2)CN(C(=O)c2cc(C#N)ccc2N2CCC(F)(F)CC2)C3)ccn1 [Example 541, 4-(4 4-Difluoropiperidin-1-yl)-3-[2-(2-methylpyridin-4-yl)-2H 4H 5H 6H-pyrrolo[3,4-c]pyrazole-5-carbonyl]benzonitrile]",> 7.00
